Antibody variant affinities, Ab-14 light chain, assay 1

Reference: Engelhart et al. 2022, doi:10.1038/s41597-022-01779-4. File: FLAb, binding data.

All variants were tested on one target, the spike HR2 peptide PDVDLGDISGINAS (SARS-CoV-2).

Each scFv is VH, three GGGGS repeats, VL, as in the parent Ab-14, and differs from it in the CDRs of the light chain only.
VH: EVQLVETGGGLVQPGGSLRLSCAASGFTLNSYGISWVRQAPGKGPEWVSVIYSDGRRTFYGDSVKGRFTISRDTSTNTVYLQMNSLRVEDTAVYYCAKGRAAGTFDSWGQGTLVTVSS
VL: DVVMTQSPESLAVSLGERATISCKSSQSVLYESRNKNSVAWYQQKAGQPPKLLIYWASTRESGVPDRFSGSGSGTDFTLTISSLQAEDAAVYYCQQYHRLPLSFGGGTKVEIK

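The library (AAYL50) carries one to three amino acid substitutions per variant, with no insertions or deletions. In AlphaSeq, yeast of one mating type display the scFv and yeast of the other type display the target. After mating in shaken culture at 30 °C for 16 h, diploids were selected and their barcode pairs sequenced. Read counts were normalised to the haploid input and turned into Kd by a linear fit to BCL2-family pairs of known affinity, for each replicate. Mating was done three times.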

Variants are written as CDR1, CDR2 and CDR3 of the light chain (limits as in the source). Parent: KSSQSVLYESRNKNSVA, WASTRES, QQYHRLPLS. The read-out is the apparent dissociation constant on a log10 scale (nM): the lower, the stronger. The mean shown is taken over the replicates in which the pair was detected. "nd" means that the variant was in the library but no mating with the target was seen in any replicate; the authors take this as a sign of poor binding, and no number exists.

CDR-L1	CDR-L2	CDR-L3	log10 Kd (nM), mean	replicates with signal	signal with controls
KSSQSVLYWSRNKNSVA	WASTRES	QQVLRLPLS	nd	0 of 3	0 of 9
KSSQSVKYESRNKNSVA	WASTREA	QTYHRLPLS	1.76	3 of 3	3 of 9
KSSQSVLYFSRNKNSVA	WQSTRES	QAYHRLPLS	nd	0 of 3	1 of 9
KSSQSFGYESRNKNSVC	WASTRES	QQYHRLPLS	3.46	3 of 3	2 of 9
KSSQSVLYEMRNKKSVA	WASTRES	QQYHRLPLS	1.84	3 of 3	0 of 9
KSSESVLYESRNKNSVA	WASTRES	QQYHRHPPS	5.00	2 of 3	2 of 9
KSSQSVLYCSRNKASVA	WASTRES	QQYHRLGLS	nd	0 of 3	0 of 9
KYSQSVLYEYRNKRSVA	WASTRES	QQYHRLPLS	3.64	2 of 3	1 of 9
KSSQSVLYESSNKLSVA	WASTRES	QQYHILPLS	2.25	1 of 3	0 of 9
KSYQSVLYESRNKNSKA	WASTRES	QQYHRLPLD	nd	0 of 3	3 of 9
KSSQSVLYEIRNKNSVA	WASTNTS	QQYHRLPLS	3.39	1 of 3	2 of 9
KSSQSVLYESRNKNSVP	WAVTRES	QQYYRLPLS	0.92	3 of 3	2 of 9
KSSQSVLYESYNKNSVA	WAYTRES	QQYHRLSLS	nd	0 of 3	2 of 9
KSSQSVLYESRNKNSVA	WASTRES	QQYCRYPLE	4.56	2 of 3	4 of 9
KSKQSVLYESRNENSVA	WASTREI	QQYHRLPLS	1.57	3 of 3	0 of 9
KSSQSVLYESRNKNSVA	FASTRES	QQYHHWPLS	4.99	2 of 3	2 of 9
KSSQSVLYEIRTDNSVA	WASTRES	QQYHRLPLS	nd	0 of 3	2 of 9
KSSQWVLYESRNKNSVA	WKSTRES	QQHHRLPLS	4.82	1 of 3	1 of 9
KMSQSVLYESRNKNSVA	WASTREM	QQYHRLPLS	-0.13	3 of 3	2 of 9
KSECSVLYESRNKMSVA	WASTRES	QQYHRLPLS	2.38	3 of 3	2 of 9
KSSQSVLYESRDKNSVA	WAETRES	QQYHRLPWS	4.60	2 of 3	5 of 9
KSSQSVLYEFRNKNSVA	WASWRES	QQYHDLPLS	1.88	1 of 3	0 of 9
KSSQSVLYESRNKNTVY	WASLRES	QQYHRLPLS	3.82	1 of 3	1 of 9
KSTQSELYESRNKNSVA	WASTRES	QQRHRLPLS	2.35	3 of 3	3 of 9
KSSQVVLYESRNKNSVA	LASTRES	PQYHRLPLS	4.35	3 of 3	3 of 9
KSSQSVLYESQMKNSVA	WASTRSS	QQYHRLPLS	0.77	3 of 3	1 of 9
KSSQSVLYEHRNKNSVA	WASTRES	CEYHRLPLS	4.96	1 of 3	0 of 9
KSSQSVLYESRNKNSVI	WASTRES	NQYARLPLS	3.63	1 of 3	1 of 9
KSSQLVLYESRNKNSVA	WAVTRES	QQYHRWPLS	nd	0 of 3	1 of 9
KSSQSVLYECRNKNSVA	WAFTRES	QQYHRLPWS	nd	0 of 3	3 of 9
MSNQSVLYESRNKNSVA	WASTRES	QQDHRLPLS	nd	0 of 3	0 of 9

Continued, with the values leading:

log10 Kd (nM), mean	replicates with signal	signal with controls	CDR-L1	CDR-L2	CDR-L3
nd	0 of 3	3 of 9	KSSQSVCYESRNKNSVA	WASTRES	QQYHRLSLS
3.28	2 of 3	5 of 9	KSSWSVLYESRNKNSVA	CASGRES	QQYHRLPLS
2.48	3 of 3	5 of 9	KSSQSELYQSRNKFSVA	WASTRES	QQYHRLPLS
2.99	2 of 3	1 of 9	KSWQTVLYESRNKNEVA	WASTRES	QQYHRLPLS
1.98	3 of 3	5 of 9	KSSQSQLYESRNKNSVA	WASTRES	QEYHRTPLS
2.21	3 of 3	0 of 9	KSSQSVLYESRNKNSVA	WAATREF	KQYHRLPLS
0.30	3 of 3	0 of 9	KSSTSVLYESHNKNSVA	WATTRES	QQYHRLPLS
nd	0 of 3	2 of 9	KSSIYVLYESRNKNSEA	WASTRES	QQYHRLPLS
0.83	3 of 3	1 of 9	KDSQSVLYESRNKNSVA	WASTRES	QQYHRLPLH
1.03	3 of 3	0 of 9	KSSQIVHWESRNKNSVA	WASTRES	QQYHRLPLS
4.02	3 of 3	3 of 9	KSSQSVLYESRNKNSVA	WAETRES	QQYHRLCLS
nd	0 of 3	0 of 9	KSSQSVLYESRIKNSVA	VASTRES	QQYHRLPLS
3.62	1 of 3	4 of 9	KSSQRVLYLSRNKNSVA	WPSTRES	QQYHRLPLS
1.20	3 of 3	0 of 9	KSSQSVLYWSGNKNSVA	WASTREF	QQYHRLPLS
4.41	2 of 3	1 of 9	KSSQSVLYESRNKNSVA	WQSTHES	QQIHRLPLS
nd	0 of 3	0 of 9	KKSQSVLYESRNKNSVA	WASTRQS	QQYHRKPLS
nd	0 of 3	1 of 9	KSSQSVLYELRNKNSVA	WASTRES	DQYGRLPLS
0.96	3 of 3	4 of 9	KSSQSVLYEARNKNSVA	WASTRES	QQYHQLPDS
nd	0 of 3	0 of 9	KSSQSYLYEDRNKNVVA	WASTRES	QQYHRLPLS
4.85	1 of 3	0 of 9	MFSQSVLYESRNKNSDA	WASTRES	QQYHRLPLS
0.97	3 of 3	2 of 9	KSSGSSLYEKRNKNSVA	WASTRES	QQYHRLPLS
nd	0 of 3	2 of 9	PSSQSVLYESREKNSVA	WASTRES	QQYHLLPLS
nd	0 of 3	0 of 9	KSSQSVLYCSRNKNAVA	WASTRES	QQYHRLPLS
nd	0 of 3	0 of 9	KSSQSVLYESRNKNSVA	WKSTRGM	QQYHRLPLS
2.41	3 of 3	1 of 9	KPSQSVLYESMNKNSVA	WAATRES	QQYHRLPLS
nd	0 of 3	4 of 9	KSSQSVDYESRNKHSVA	WASTRES	QQYHRLPDS
3.73	2 of 3	2 of 9	GSSQSVLYESRNKNSQA	WASTRES	TQYHRLPLS
nd	0 of 3	0 of 9	KHSQSVLYESRNKNSVA	WASRRES	QQYHRLPHS
4.26	1 of 3	1 of 9	KSSQSVLYESRNKNSVA	WMSTRMS	QQYHRLPLS
3.71	3 of 3	2 of 9	RSSQSVLYLSRNKNSVA	WASTRES	QQYHLLPLS
nd	0 of 3	0 of 9	KSSQSVLYESFPKNSVA	WASTTES	QQYHRLPLS
2.45	3 of 3	2 of 9	YSSQFVLYESRNKNSVA	WADTRES	QQYHRLPLS

Repeated from above, the 5 best binders with a signal in all replicates:

CDR-L1	CDR-L2	CDR-L3	log10 Kd (nM), mean	replicates with signal	signal with controls
KMSQSVLYESRNKNSVA	WASTREM	QQYHRLPLS	-0.13	3 of 3	2 of 9
KSSTSVLYESHNKNSVA	WATTRES	QQYHRLPLS	0.30	3 of 3	0 of 9
KSSQSVLYESQMKNSVA	WASTRSS	QQYHRLPLS	0.77	3 of 3	1 of 9
KDSQSVLYESRNKNSVA	WASTRES	QQYHRLPLH	0.83	3 of 3	1 of 9
KSSQSVLYESRNKNSVP	WAVTRES	QQYYRLPLS	0.92	3 of 3	2 of 9

Empty control strains, which show no peptide, gave a signal in 18% of pairings with library AAYL50; the median was 4.19 and 95% of these signals were weaker than 2.99. No background was subtracted. Also given: how often the same scFv was detected with the empty control strains.